Assay outcomes: PubChem BioAssay, National Center for Advancing Translational Sciences (NCATS)
IL2 activator: IL-2 activation. 360,000 tested, 0.065% active. activation, % (series mostly up to about 46 µM). IL-2 activation reporter assay, cell-based qHTS; stimulated with anti-CD3/CD4/CD28 beads; in transgenic mouse T cells; in the data active = activation above about 50%; inconclusive = mostly about 30% to 49%; note: 0% is about no effect
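First, unstimulated transgenic mouse T cells were exposed to compound for 60 min. Next, anti-CD3/anti-CD4-coated beads with anti-CD28 were added. Finally, after 18 h at 37 degrees C, EGFP and DsRed were imaged.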
PINK1 expr mod: modulators of PINK1 expression; PINK1 immunofluorescence, high-content cytometry, 24 h; AID 624263; 410,000 tested, 0.2% active; Potency, µM (series often up to 76.6 µM), without a hit: at the top dose activation (PINK1 increase), usual class: activators; active = well fitted activation curve with a large enough effect; inconclusive = small, poorly fitted or top-dose-only effect; cell line not stated here; note: potency is the fitted concentration of half-maximal effect; % of control where 0% means no effect; nearly all actives have a fitted effect of over 65% in size
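A stable cell line was treated with compounds at 5 concentrations for 24 hours, with CCCP as control. PINK1 levels and mitochondrial localization were measured by immunofluorescence with mitochondrial, cell and nuclear markers after fixation, read by laser-scanning cytometry.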
RXFP1 ag: RXFP1 (human) receptor agonism; HEK293T-RXFP1 cAMP TR-FRET, 30 min; response scale: percent of porcine relaxin response, buffer zero; Potency, µM (doses to about 57.5 µM), without a hit: top-dose activation, usual class: activators; 370,000 tested, 0.3% active; AID 2676; note: potency is the fitted concentration of half-maximal effect; % is set by controls: 0 for no effect and ±100 for the full control effect; nearly all actives have a fitted effect of over 60% in size
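HEK293T cells stably expressing RXFP1 were pretreated with the PDE4 inhibitor Ro 20174, exposed to compounds for 30 min at 37C, lysed, and cAMP was read by TR-FRET. Data normalized to buffer (basal) and 29 nM porcine relaxin (100%).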
RXFP1 antag: blocks the human relaxin receptor RXFP1; activity change, negative = inhibition, % at 57.5 µM; 350,000 tested, 0.59% active; HEK293-RXFP1, relaxin-stimulated cAMP HTRF, 30 min; hits give low values; AID 1259400; Q9HBX9;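 active = activity change of -60% or lower, but not beyond a set lower limit; inconclusive = change between -60% and -40%, or beyond the set limit; inactive = change above -40%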; note: % is set by controls: 0 for no effect and ±100 for the full control effect
miR-21 reporter: raises the signal of a miR-21 reporter; Potency, µM (doses to about 38.3 µM), inactives show top-dose reporter change, positive = more light; HeLa miR-21 FLuc reporter, luciferase, 48 h; AID 2288; 340,000 tested, under 10 active; active = well fitted rising curve with a large enough effect; inconclusive = small, poorly fitted or top-dose-only effect; inactive = no such curve, though single readings can be large or run the other way;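 further: % of control where 0% means no effect; miR-21 action dims this reporter so a rising signal means less miR-21 action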
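HeLa cells endogenously expressing miR-21, stably carrying CMV-driven firefly luciferase with a downstream miR-21 binding site, 2000 cells/well. Titrations up to approximately 40 uM, 48 hours; luciferase luminescence read.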
TCR activator: activates T cell receptor signaling | primary human leukocytes, anti-CD3, IL-2 HTRF, 48 h | Potency, µM (titrated, usually from 9.22 µM), without a hit: at the highest dose activation of IL-2 secretion, hits mostly activators | 330,000 tested, under 10 active; note: % of control where 0% means no effect
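Human primary leukocytes + a-CD3 beads + cpd, 48 hr; IL-2 in supernatant by HTRF (ex 320nm / em 665nm). No co-stimulatory signal supplied.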
The depositor's hits bear a star; ? = inconclusive; nt = no result given; [ ] = another dose, or the depositor's remark. Compounds with a hit are over-represented: about 0.78% of the library has one in this group of screens. Unless noted, calls come from the whole dose curve; as a rule, active = well fitted curve in the direction sought with a large enough effect; inconclusive = small, poorly fitted or top-dose-only effect, or another doubt; inactive = no such curve, though single readings can be large; an effect the other way counts as inactive or inconclusive.

SMILES	IL2 activator	PINK1 expr mod	RXFP1 ag	RXFP1 antag	miR-21 reporter	TCR activator
CSc1ccccc1NC(=O)C(=O)c1c[nH]c2ccccc12	-6.4	5.8%	0.9%	-60.0*	-25.9%	-1.0%
C[C@@H](NC(=O)C(=O)c1c[nH]c2ccccc12)c1ccccc1	1.4	5.4%	nt	nt	nt	15.4%
OCC1(Cc2ccc(Cl)cc2)CCN(Cc2ccccc2F)CC1	-2.5	3.1%	0.3%	-19.5	-0.8%	-9.0%
CSc1ccc(CN2CCC(CO)(Cc3ccc(Cl)cc3)CC2)cc1	0.9	-0.6%	-1.1%	-81.4*	1.1%	-10.0%
Nc1ccc(C(=O)OCC(O)CO)cc1 (stereo not given)	nt	nt	nt	9.4	nt	nt
Cc1ccc([C@H]2Nc3ccc(S(=O)(=O)Nc4cccc(Cl)c4C)cc3[C@H]3C=CC[C@H]32)cc1	nt	2.1%	2.4%	-62.0*	0.5%	nt
COC(=O)c1ccc([C@H]2Nc3ccc(S(=O)(=O)Nc4cccc(C)c4)cc3[C@H]3C=CC[C@H]32)cc1	nt	1.1%	3.5%	-70.1*	-2.6%	nt
COc1cc(CN2CCCC(n3cc(C(=O)N4CCCCC4)nn3)C2)cc(OC)c1 (stereo not given)	nt	-0.8%	nt	nt	nt	nt
COC(=O)c1ccccc1-c1ccc(/C=N/NC(=O)c2cc3ccccc3o2)o1	-0.6	1.8%	0.6%	-8.9	0.6%	3.6%[46.1 µM]
COC(=O)c1ccccc1-c1c2ccc(=N)cc-2oc2cc(N)ccc12	2.6	39.8µM*	7.8%	14.7	nt	-2.8%
O=C(C[n+]1cc(Br)cc2ccccc21)c1ccc(Cl)cc1	-2.7	14.1µM*	22.0%	-19.5	-4.5%	14.8%
O=C(CSc1ccc2ccccc2c1)Nc1ccncc1	0.1	12.6µM*	2.7%	-9.7	4.1%	nt
CCC1(C)Cc2c(sc3nnn(CC(=O)Nc4ccc(C)cc4)c(=O)c23)CO1 (stereo not given)	3.8	10µM*	1.2%	-10.0	0.9%	nt
CCS(=O)(=O)c1ccc(OC)c(C(=O)OC)c1	nt	nt	nt	-26.7	nt	nt
Cc1ccccc1Cn1c(=O)n(CCCC(=O)NCc2ccco2)c(=O)c2sccc21	-0.6	2.7%	2.3%	-5.0	3.8%	-3.9%

Overlap with the part before: 4 compounds; new compounds follow.
SMILES	IL2 activator	PINK1 expr mod	RXFP1 ag	RXFP1 antag	miR-21 reporter	TCR activator
O=C(CSc1ccc2ccccc2c1)Nc1ccncc1	0.1	12.6µM*	2.7%	-9.7	4.1%	nt
CCC1(C)Cc2c(sc3nnn(CC(=O)Nc4ccc(C)cc4)c(=O)c23)CO1 (stereo not given)	3.8	10µM*	1.2%	-10.0	0.9%	nt
CCS(=O)(=O)c1ccc(OC)c(C(=O)OC)c1	nt	nt	nt	-26.7	nt	nt
Cc1ccccc1Cn1c(=O)n(CCCC(=O)NCc2ccco2)c(=O)c2sccc21	-0.6	2.7%	2.3%	-5.0	3.8%	-3.9%
O=C(CCCn1c(=S)[nH]c2ccsc2c1=O)NCc1ccco1	-1.4	0.9%[38.3 µM]	7.2%	-78.1*	-0.8%	nt
O=C(CCCCn1c(=S)[nH]c2ccsc2c1=O)NCc1ccco1	-1.3	?	1.5%	-81.1*	3.0%	nt
COc1ccc(C(=O)/C=C/Nc2ccc([N+](=O)[O-])cc2C)c(OC)c1	-3.6	?	3.9%	-13.8	-10.9%	3.2%
COc1ccc(C(=O)/C=C/Nc2ccc([N+](=O)[O-])cc2C)cc1OC	-2.2	28.2µM*	2.1%	7.3	-15.9%	-14.0%
CNc1cc([N+](=O)[O-])ccc1N/C=C/C(=O)c1ccc2c(c1)OCO2	-0.5	14.1µM*	0.4%	nt	-34.7%	2.5%[46.1 µM]
CC(=O)N1CC(=O)N=C1SCC(=O)Nc1nc(-c2ccccc2)c(-c2ccccc2)s1	-0.7	4.5%	1.3%	-86.4*	22.4%	7.2%[46.1 µM]
COc1cc(/C=N/NC(=O)c2ccncc2)ccc1OC(=O)c1cccc(Br)c1	0.4	-0.3%	-2.5%	-72.5*	4.1%	-5.1%
COc1cc(/C=N/NC(=O)c2ccccc2O)ccc1OCC(=O)Nc1ccccc1	-2.9	-3.4%	3.2%	nt	-31.8%	7.2%
COc1cccc(C(=O)Oc2ccc(/C=N/NC(=O)c3ccncc3)cc2OC)c1	-1.4	5.1%	-1.5%	-9.9	3.0%	-1.4%
COc1cc(/C=N/NC(=O)c2ccncc2)ccc1OCC(=O)Nc1ccccc1	-0.4	0.1%	-2.2%	-73.5*	-48.9%	-2.2%
CC(=O)c1ccc(F)c(-c2cc(C)cc3c2OC(CNC(=O)Cc2ccc4c(c2)OCO4)C3)c1 (stereo not given)	nt	0.6%	nt	nt	nt	nt
CCOCc1cc(CN2CCN(c3ccccc3OC)CC2)c(O)c2ncccc12	nt	2.8%	-1.8%	-6.0	-6.2%	nt
